Molecular target: Human immunodeficiency virus type 1 reverse transcriptase (Human immunodeficiency virus 1) (UniProt Q72547)
Experiment: Ratio of IC50 for HIV-1 reverse transcriptase using 0.05 ug/mL of Poly(rA).p(dT) (12 to 18) as substrate to IC50 for HIV-1 reverse transcriptase using 25 ug/mL of Poly(rA).p(dT) (12 to 18) as substrate

Nc1ccc2c(c1)c(-c1ccccc1)[n+](CCCNCCNCCC[n+]1c(-c3ccccc3)c3cc(N)ccc3c3ccc(N)cc31)c1cc(N)ccc21
Ratio IC50: 213

— ChEMBL document CHEMBL2157905, “Inhibition of therapeutically important polymerases with high affinity bis-intercalators” (Bioorg Med Chem Lett, 2012)
